The record followed here is ChEMBL document CHEMBL3390834, “Development of second generation epigenetic agents” (Medchemcomm, 2012).

Sequences of proteins named here, by UniProt entry; tags and fusion partners are left off.
UniProt P21397, whole entry: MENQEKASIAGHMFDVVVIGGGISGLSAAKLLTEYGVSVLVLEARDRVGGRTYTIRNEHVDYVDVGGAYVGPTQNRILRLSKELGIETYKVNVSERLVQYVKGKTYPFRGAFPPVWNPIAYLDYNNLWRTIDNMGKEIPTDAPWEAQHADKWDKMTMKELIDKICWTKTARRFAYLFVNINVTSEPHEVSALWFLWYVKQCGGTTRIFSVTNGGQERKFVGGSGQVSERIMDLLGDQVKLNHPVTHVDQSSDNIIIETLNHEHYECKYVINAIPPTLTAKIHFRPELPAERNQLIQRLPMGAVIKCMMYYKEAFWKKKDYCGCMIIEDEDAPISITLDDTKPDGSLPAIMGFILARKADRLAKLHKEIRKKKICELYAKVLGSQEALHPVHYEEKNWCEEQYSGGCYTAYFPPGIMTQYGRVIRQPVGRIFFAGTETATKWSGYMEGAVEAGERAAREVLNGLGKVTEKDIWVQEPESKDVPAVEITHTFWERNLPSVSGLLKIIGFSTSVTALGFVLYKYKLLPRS

The structures appear in SMILES notation.

In the test the target is Amine oxidase [flavin-containing] A (Homo sapiens, UniProt P21397). In words: Inhibition of human MAO-A using kynuramine/benzylamine as substrate.

Turning to `NC1CC1c1ccc(NC(=O)C(Cc2ccccc2)NC(=O)OCc2ccccc2)cc1` (stereo unspecified), the IC50 (commonly the concentration that inhibits the measured activity by half) came out at 1200 nM.
